This assay has as its system Escherichia coli. The experiment in a line: Antibacterial activity against Escherichia coli ATCC 25922 after 18 hrs by twofold serial agar dilution technique. In kind it is functional. Background: Agar dilution tests growth on a series of plates holding different concentrations.

Calls of active or inactive are those of the source. The rule behind the calls is not given here.

For `O=C(O)c1cn(C2CC2)c2cc(N3CCNCC3)c(F)cc2c1=O` [CIPROFLOXACIN], the outcome was inactive.

Source of the values: ChEMBL document CHEMBL2046376, “Synthesis and antimicrobial activity of amide derivatives of polyether antibiotic-salinomycin” (2012).
